This is an account of results in patent US5045222A, “Use of triacylated ethanolamines as liquid, water-miscible peroxide activators” (Hoechst Aktiengesellschaft, priority 1988, dated 1991).

This is a selection: effects in other tests are not listed, and their absence says nothing.

Experiment [1] is described as follows: Wash tests in Launder-O-meter at 60° C., red wine stain. To be noted: 30 minutes, 25 mg active oxygen per liter, 1.5 g IEC basic washing powder per liter. Here is the method: These tests were carried out at 60° C. in water of 15° German hardness in a Launder-O-meter using standard soil cloths WFK 10 G cotton (tea stain) and EMPA cotton No. 114 (red wine stain). The bleaching systems perborate) were added in such amounts that in each case 25 mg of active oxygen were present per liter of washing liquor. The detergent used in each case was 1.5 g of IEC basic washing powder per liter of washing liquor. The washing time was 30 minutes. The bleaching effect was determined as the increase in the reflectance of the various test fabrics. The measurements were processed in the usual manner.

Experiment [2] is described as follows: Washing tests in Launder-O-meter at room temperature, red wine stain. To be noted: 25° C., 15 minutes, 3% activator and 10% sodium perborate. Here is the method:
The following tests were carried out at 25° C. in water of 15° German hardness in a Launder-O-meter using standard soil cloths WFK 10 G cotton (tea stain) and EMPA cotton No. 114 (red wine stain) and the IEC basic washing powder. The detergent composition contained in each case 3% of the activator and 10% of sodium perborate. The washing time was 15 minutes.

sodium perborate yielded a Reflectance values in experiment [1] of 58.0. The same substance gave a Reflectance in experiment [2] of 51.7.
